Test results taken from patent publication US7341721B2, “β2-microglobulin (β2m) and anti-β2m binding agents as anti-cancer therapeutics” (The Board of Trustees of the University of Arkansas, priority 2002, dated 2008).

How the values were obtained:
Format in all cases: cell-based, human
[1] = system: ARK-RS, ARP-1, RPMI-8226, and U266 cells; assay: 3H-thymidine incorporation cell proliferation assay, EBV-negative myeloma cell lines; conditions: β2m; dose-response in 48-hour culture, time-response at 20 μg/ml; P<0.05 and 0.01
Procedure: (§1) The U266, RPMI-8226, ARH-77, and IM-9 human myeloma-derived cell lines were obtained from the American Type Culture Collection (Rockville, Md.). The ARP-1 and ARK-RS cell lines were established at the Arkansas Cancer Research Center from bone marrow aspirates of patients with MM (Harding, J., et al., Blood, 84:3063-3070, 1994) and provided by Dr. J. Epstein. These cell lines, except ARH-77 and IM-9, are negative for Epstein-Barr virus (EBV). Cells were cultured in RPMI-1640 (Gibco, Grand Island, NY) containing 10% heat-inactivated (56° C. for 30 min) fetal bovine serum, 100 U/ml penicillin, 100 μg/ml streptomycin, and 4 mmol L-glutamine (Gibco).
(§2) Myeloma cells (1×10^5/ml for cell lines and 0.5-1×10^6/ml for primary cells) were cultured in complete medium. For experiments with β2m or anti-β2m antibody that bind β2m, cells were cultured in the absence or the presence of β2m for up to 120 hours or anti-β2m antibody for up to 48 hours. Viable cells were determined by trypan blue (Gibco) exclusion. […] Radioactivity was measured in a liquid scintillation analyzer (Packard, Meriden, Conn.). Experiments were performed in triplicate, and cell growth was expressed as a percentage of that seen in control media.

[2] = system: ARH-77 and IM-9; assay: 3H-thymidine incorporation cell proliferation assay, EBV-positive cell lines; conditions: β2m; 48-hour culture; P<0.05 and 0.01
Procedure: as §1, §2

[3] = system: primary myeloma cells; assay: 3H-thymidine incorporation cell proliferation assay, primary myeloma cells; conditions: β2m, 24 hours
Procedure: (§3) Primary myeloma cells were isolated from bone marrow aspirates obtained from patients during a routine clinic visit. Institutional Research Board-approved consent forms are kept on file. Briefly, bone marrow mononuclear cells were separated by Ficoll-Paque (Amersham Pharmacia Biotech, Piscataway, N.J.) density-gradient centrifugation. CD138^+ cells were isolated by incubation with anti-CD138 antibody-conjugated microbeads and sorted by VarioMACS magnetic cell-sorting kit (Miltenyi Biotec GmbH, Bergisch Gladbach, Germany), according to the manufacturer's recommendations. The sorted CD138^+ cell populations contained >90% myeloma plasma cells (Yi, Q., et al., Blood, 90:1960-1967, 1997). Freshly sorted cells were used in most of the experiments.
as §2

[4] = system: myeloma cell lines; assay: Apoptosis assay (Annexin V/PI staining, TUNEL), myeloma cell lines
Procedure: (§4) The fraction of apoptotic cells was determined by staining cells with Annexin V-fluorescein isothiocyanate (FITC) (Immunotech) and propidium iodide (PI) (Sigma) (Vermes, I., et al., J. Immunol. Methods, 184:39-51, 1995). Myeloma cells were incubated in medium containing various concentrations of β2m, or anti-β2m antibody, or both, for 48 hours and then resuspended in Annexin V-binding buffer. 5 μl of Annexin V-FITC (BD PharMingen, San Diego, Calif.) were added and incubated for 30 minutes. After washing and re-suspension of the cells in the binding buffer, 5 μl of PI were added, and the cells were ready for analysis. Percentages of apoptotic cells are the sum of PI^−/Annexin V^+ (newly apoptotic) and PI^+/Annexin V^+ (already apoptotic) cell populations (Vermes, I., et al., J. Immunol. Methods, 184:39-51, 1995).
To confirm cell apoptosis induced by β2m and anti-β2m antibodies, the terminal deoxynucleotidyl transferase-mediated dUTP nick end labeling (TUNEL) assay was also employed. A flow cytometry-based cell death detection kit (APO-BRDU) was purchased from BD PharMingen, and experiments were performed according to the manufacturer's protocol.

[5] = system: primary myeloma cells; assay: Apoptosis assay, primary myeloma cells; conditions: 20 μg/ml β2m for 24 hours
Procedure: as §3
as §4, with “Percentages of apoptotic cells are the sum of PI^−/Annexin V^+ (newly apoptotic) and PI^+/Annexin V^+ (already apoptotic) cell populations (Vermes, I., et al., J. Immunol. Methods, 184:39-51, 1995).” left out

[6] = system: caspase-3 and PARP; assay: Western blot of caspase-3 activation and PARP cleavage in myeloma cells; conditions: β2m treatment
Procedure: (§5) Cells were cultured with or without 40 μg/ml β2m for 48 hours, harvested, washed, and lysed with lysis buffer (50 mM Tris, pH 7.5, 140 mM NaCl, 5 mM EDTA, 5 mM NaN3, 1% Triton-X-100, 1% NP-40, 1× protease inhibitor cocktail). To detect cyclins A, D (D1 and D2), and E, cell lysates were subjected to SDS-PAGE, transferred to polyvinylidene difluoride membrane, and immunoblotted with respective anticyclin antibodies (Santa Cruz Biotechnology, Inc., Santa Cruz, Calif.). The membrane was stripped and reprobed with anti-β-actin antibody (Santa Cruz Biotechnology) to ensure equivalent protein loading. For detection of caspase-3 activation and cleavage of poly(ADP-ribose) polymerase (PARP), the membranes were immunoblotted with anti-caspase-3 antibody (Santa Cruz Biotechnology) or anti-PARP antibody (BD PharMingen). Secondary antibodies conjugated to horseradish peroxidase were used for detection, followed by enhanced chemiluminescence (Bio-Rad Laboratories, Hercules, Calif.) and autoradiography.
When the pan-caspase inhibitor Z-VAD-FMK was added to the culture, activation and processing of caspase-3 (data not shown), cleavage of PARP (FIG. 5B), and apoptosis (FIG. 5C) were inhibited.

[7] = system: myeloma cell lines; assay: Cell cycle analysis (BrdU incorporation) in myeloma cell lines; conditions: β2m 20 μg/ml for 48 hours
Procedure: To determine the effect of β2m, or anti-β2m antibodies, on cell cycle progression, 5-bromo-2′-deoxyuridine (BrdU, Sigma) incorporation was used (Gratzner, H. G., Science, 218:474-475, 1982). Briefly, after treatment with the agent of interest, cells were incubated for 2 hours with 20 μM BrdU, fixed with 70% ethanol overnight, washed with PBS, and incubated in 2 M hydrochloride for 20 minutes. After washing, FITC-conjugated anti-BrdU antibody (Becton Dickinson, Franklin Lakes, N.J.) was added and incubated for 20 minutes, followed by washing and incubation with ribonuclease (100 μg/ml RNase, Sigma) and PI (50 μg/ml). Cells were analyzed by flow cytometry.

[8] = system: cyclins A, D (D1 and D2), and E; assay: Western blotting detection of cyclins in myeloma cell lines; conditions: ARK-RS, ARP-1, RPMI-8226; β2m treatment
Procedure: as §5

β2m: Purified human β2m from human urine (Sigma); 11.6-kDa non-glycosylated polypeptide of 100 amino acids
proliferation of myeloma cell lines (3H-thymidine incorporation) [1]: suppressed by β2m in a dose-dependent (FIG. 1A) and time-dependent (FIG. 1B) manner
growth of EBV-positive cell lines [2]: suppressed the growth
proliferation of primary myeloma cells ([3]; patient no. 3): no apparent effect
proliferation of primary myeloma cells ([3]; patient nos. 1, 2, 4, and 5, P<0.05): inhibited the proliferation of cells from 4 of these patients in a dose-dependent manner
degree of apoptosis in six cell lines ([4]; 40 μg/ml β2m, six myeloma cell lines compared): higher in RPMI-8226, ARK-RS, and ARH-77 cells
induction of apoptosis ([4]; RPMI-8226, Annexin V and PI staining and TUNEL assay, P<0.01, dose-dependent): significant induction of apoptosis
apoptotic cells ([5]; patient 1, untreated 20%): 38%
apoptotic cells ([5]; patient 5, untreated 30%): 45%
caspase-3 activation and PARP cleavage ([6]; ARK-RS, ARP-1, and RPMI-8226 cells): activation and processing of caspase-3 and cleavage of PARP
caspase-3 activation and PARP cleavage ([6]; U266 cells): not in U266 cells
cell cycle distribution ([7]; ARK-RS, ARP-1, and RPMI-8226): An increased percentage of cells in G0/G1 phases and a decreased percentage in S and G2/M phases
cell cycle distribution ([7]; U266): not in U266 cells
expression of cyclins A and D2 [8]: downregulated cyclins A and D2
expression of cyclins D1 and E [8]: not cyclins D1 or E
